Values of other authors in paper PMC1253704, “Nitromusk and Polycyclic Musk Compounds as Long-Term Inhibitors of Cellular Xenobiotic Defense Systems Mediated by Multidrug Transporters” (Environmental Health Perspectives, 2004).

Settings: ref Wang et al. (2003); cited from earlier work

C=C[C@H]1C[N@@]2CC[C@H]1C[C@@H]2[C@@H](O)c1ccnc2ccc(OC)cc12 [Quinidine, reference compound]
Log Kow: 2.8^b

Marks after values point to notes of the source that are not given here.
